Source: ChEMBL document CHEMBL2413050, “Design and synthesis of conformationally restricted capsaicin analogues based in the 1, 3, 4-thiadiazole heterocycle reveal a novel family of transient receptor potential vanilloid 1 (TRPV1) antagonists” (Eur J Med Chem, 2013)
pIC50: −log10 of the molar value.

By UniProt entry, the sequences of proteins in these tests, tags left out.
UniProt O35433, whole entry: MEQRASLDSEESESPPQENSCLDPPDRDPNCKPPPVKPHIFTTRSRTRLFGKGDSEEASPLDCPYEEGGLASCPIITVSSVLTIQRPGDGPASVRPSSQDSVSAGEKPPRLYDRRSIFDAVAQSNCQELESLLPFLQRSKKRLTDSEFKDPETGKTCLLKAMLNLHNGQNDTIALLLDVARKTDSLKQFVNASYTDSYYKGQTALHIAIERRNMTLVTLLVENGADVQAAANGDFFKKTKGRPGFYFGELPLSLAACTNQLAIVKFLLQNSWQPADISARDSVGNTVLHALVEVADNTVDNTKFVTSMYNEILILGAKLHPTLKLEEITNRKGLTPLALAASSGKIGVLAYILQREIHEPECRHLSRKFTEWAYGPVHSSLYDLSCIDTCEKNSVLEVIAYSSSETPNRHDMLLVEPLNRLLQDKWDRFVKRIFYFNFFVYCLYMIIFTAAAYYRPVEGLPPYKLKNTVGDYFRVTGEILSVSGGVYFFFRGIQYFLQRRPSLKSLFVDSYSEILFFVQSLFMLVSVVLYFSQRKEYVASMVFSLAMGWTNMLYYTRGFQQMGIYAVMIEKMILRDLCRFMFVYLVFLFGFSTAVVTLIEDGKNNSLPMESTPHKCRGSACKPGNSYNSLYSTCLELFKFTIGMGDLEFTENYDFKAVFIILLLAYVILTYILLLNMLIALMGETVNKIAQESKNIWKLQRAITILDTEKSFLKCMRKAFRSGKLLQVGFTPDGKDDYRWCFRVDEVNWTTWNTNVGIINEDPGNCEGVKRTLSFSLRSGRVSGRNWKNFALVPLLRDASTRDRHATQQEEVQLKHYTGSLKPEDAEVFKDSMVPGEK

Tests used:
[1] = molecular target: T1, Transient receptor potential cation channel subfamily V member 1 (Rattus norvegicus, UniProt O35433); assay: Antagonist activity at rat TRPV1 receptor expressed in HEK293T cells assessed as inhibition of capsaicin-induced calcium flux after 30 mins by Fluo-4AM based fluorescence assay; assay type: cell-based, HEK-293T
[2] = molecular target: T1, Transient receptor potential cation channel subfamily V member 1; assay: Antagonist activity at rat TRPV1 receptor expressed in HEK293T cells assessed as inhibition of temperature-induced calcium flux after 30 mins by Fluo-4AM based fluorescence assay; assay type: cell-based, HEK-293T

- pIC50 [1]: 8.31
- pIC50 [2]: 8.67
Structure (SMILES): CC(C)(C)c1ccc(NC(=O)N2CCN(c3ncccc3Cl)CC2)cc1
